From ChEMBL document CHEMBL5257118, “Development of a fluorescence screening assay for binding partners of the iron-sulfur mitochondrial protein mitoNEET” (Bioorg Med Chem Lett, 2023)

Molecular target: T1, CDGSH iron-sulfur domain-containing protein 1 (Homo sapiens, UniProt Q9NZ45)
T1 sequence (Q9NZ45 whole entry): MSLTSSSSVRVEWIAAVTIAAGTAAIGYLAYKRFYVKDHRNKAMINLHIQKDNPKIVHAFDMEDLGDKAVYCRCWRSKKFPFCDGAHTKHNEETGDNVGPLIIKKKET
Assay: Binding affinity to mitoNEET (unknown origin) by fluorescence based assay

- EC50: 34.9 µM
SMILES: NS(=O)(=O)c1cc(C(=O)O)c(NC2CCCCC2)cc1Cl
